The record followed here is US20250034275A1 (CHIA TAI TIANQING PHARMACEUTICAL GROUP, published 2025).

Experiment [1] addresses T1, human Trop-2 (on the surface of human cell lines) (human, UniProt P09758 27-323).
T1 construct: Endogenous Trop-2 on NCI-H322, Capan-1, PC-3, HUVEC, OVCAR-3, HCC38 and HCC1806 cells; also called TACSTD2
T1 sequence: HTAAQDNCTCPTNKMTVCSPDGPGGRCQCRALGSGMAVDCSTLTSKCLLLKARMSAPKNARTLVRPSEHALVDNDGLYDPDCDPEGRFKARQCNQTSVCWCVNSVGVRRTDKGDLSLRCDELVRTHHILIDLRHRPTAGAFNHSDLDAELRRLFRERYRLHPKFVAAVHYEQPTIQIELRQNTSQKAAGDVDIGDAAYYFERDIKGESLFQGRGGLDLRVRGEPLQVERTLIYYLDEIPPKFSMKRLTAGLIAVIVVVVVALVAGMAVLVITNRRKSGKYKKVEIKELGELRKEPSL
Nature of the experiment: flow cytometry, HCC1806 cells. As to the method: (§1) Tumor cells expressing Trop-2 were prepared into a cell suspension (0.5-1×10⁶ cells/mL) using the FACS buffer (Miltenyi Biotec, 130-091-221), and the cell suspension was added to a 96-well V-bottom plate at 100 μL/well. After centrifugation and removal of the supernatant, the test antibodies diluted with the FACS buffer to different concentrations (0.006 nM-100 nM) were each added at 50 μL/well. The mixture was incubated in the dark in a 4° C. refrigerator for 1 h. The plate was then washed 3 times with the FACS buffer by centrifugation at 300 g, and Alexa Fluor 488 goat anti-human IgG (H+L) (Bio-legend, 409304, 1:500 dilution) at working concentration was added. The mixture was incubated in the dark in a 4° C. refrigerator for 40 min. The plate was then washed 3 times with the FACS buffer by centrifugation at 300 g, the geometric mean fluorescence intensity (MFI) was measured on a Sartorius iQue3 flow cytometer, and the binding EC₅₀ values of the antibodies for tumor cells with different Trop-2 expression levels were calculated

Another experiment has as its target T2, human Trop-2-His (human, UniProt P09758 27-274, limits assumed).
T2 construct: by analogy with the macaque construct it is probably the extracellular domain with a His tag; also called Trop-2-His protein
T2 sequence: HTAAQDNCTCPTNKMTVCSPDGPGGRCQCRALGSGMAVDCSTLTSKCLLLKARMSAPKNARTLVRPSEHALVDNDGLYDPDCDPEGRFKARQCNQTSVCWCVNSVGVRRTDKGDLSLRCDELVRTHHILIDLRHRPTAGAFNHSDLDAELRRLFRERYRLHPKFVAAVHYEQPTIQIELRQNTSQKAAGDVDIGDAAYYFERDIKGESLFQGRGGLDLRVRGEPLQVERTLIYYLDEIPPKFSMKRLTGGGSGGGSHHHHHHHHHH
Kind of experiment: ELISA, plate-coated human Trop-2-His. As for the experimental part:
After the liquid was discarded, 2% BSA (SIGMA, B2064-100G) diluted with PBS was added at 300 μL/well for blocking, and the mixture was incubated at 37° C. for 2 h. After the blocking was completed, the blocking buffer was discarded, the plate was washed 3 times with PBST buffer (pH 7.4 PBS containing 0.1% tween-20), the antibody solution diluted in a gradient was added at 100 μL/well, and the mixture was incubated at 37° C. for 1 h. After the incubation was completed, the plate was washed 3 times with PBST, the goat anti-human IgG (H+L) (JacksonImmunoResearch, 109-035-098, 1:5000 dilution) was added at 100 μL/well, and the mixture was incubated at 37° C. for 1 h. After the plate was washed 3 times with PBST, a TMB chromogenic substrate (TIANGEN, PA107-01) was added at 100 μL/well. The mixture was incubated at room temperature for 10-15 min, and then 1 M H₂SO₄ was added at 50 μL/well to terminate the reaction. The absorbance values at 450 nm were taken using a microplate reader. The binding curves of antibodies for antigen were fitted using software, and the EC₅₀ values were calculated. The binding activity of the antibodies for the proteins is shown in Table 5-1, Table 5-2, Table 5-3, and FIG. 1.
On the technique in general: ELISA stands for enzyme-linked immunosorbent assay.

In experiment [2] the target is T1, human Trop-2 (on the surface of human …). Kind of experiment: cell-based or functional assay.
Experiment [3] has the same target. Kind of experiment: cell-based or functional assay. This is another data set of the same source.
Experiment [4] has the same target. Kind of experiment: flow cytometry, OVCAR-3 cells. As for the experimental part: as §1
A general note: Flow cytometry measures light scatter and fluorescence of single cells or particles in a stream.

B1: hz-Ab35-1.3 (antibody, human IgG1, kappa, V domains shown)
VH: QVQLVQSGAEVKKPGASVKVSCKASGYTFTSSDINWVRQRPGQGLEWMGWIYPRDGSKKYNEKFKGRVTMTVDTSTSTVYMELSSLRSEDTAVYYCATRFATVVSNYGLDPWGQGTLVTVSS
VL: EIVLTQSPATLSLSPGERATLSCSASSSVNYIYWYQRKPGQAPRLLIYDTSNLASGIPARFSGSGSGTDFTLTISSLEPEDFAVYYCQQWNSYPLTFGQGTKVEIKR
A word on the EC50: it is the concentration that produces a half-maximal response. Low readings indicate higher potency in that assay, high ones lower potency in that assay. Consider B1, for which the EC50 in experiment [1] was 0.54 nM. A half-maximal response with human Trop-2-His (EC50) required 0.042 nM. For the same molecule, in experiment [2], the “ADCC reporter (Jurkat-CD16a v158-NFAT-luciferase), target cell H322, EC50” value (shortened to “ADCC reporter … target cell H322, EC50”) amounted to 0.11 nM and the “ADCC reporter (Jurkat-CD16a v158-NFAT-luciferase), target cell HCC1806, EC50” value (from here on “ADCC reporter … target cell HCC1806, EC50”) is 0.2 nM. In addition, in experiment [3], the “ADCC, PBMC killing (LDH), H322, EC50” value worked out at 0.02 nM; the “ADCC, PBMC killing (LDH), H322, Maximum killing (%)” value (“ADCC … H322, Maximum killing (%)” below) came out at 51.5%; the “ADCC, PBMC killing (LDH), HCC1806, EC50” value was found to be 0.04 nM; the “ADCC, PBMC killing (LDH), HCC1806, Maximum killing (%)” value (from here on “ADCC … HCC1806, Maximum killing (%)”) was determined as 35.7%. The same molecule gave an EC50 in experiment [4] of 0.64 nM.

B2: hz-Ab35-1.1 (antibody, human IgG1, kappa, V domains shown)
VH: QVQLVQSGAEVKKPGASVKVSCKASGYTFTSSDINWVRQRPGQGLEWMGWIYPRDGSKKYAQKFQGRVTMTVDTSTSTVYMELSSLRSEDTAVYYCATRFATVVSNYGLDPWGQGTLVTVSS
VL: EIVLTQSPATLSLSPGERATLSCSASSSVNYIYWYQRKPGQAPRLLIYDTSNLASGIPARFSGSGSGTDFTLTISSLEPEDFAVYYCQQWNSYPLTFGQGTKVEIKR
B2: in experiment [1], the EC50 worked out at 0.8 nM. The molecule further yielded an EC50 in the experiment with human Trop-2-His of 0.052 nM. Besides, in experiment [2], the “ADCC reporter … target cell H322, EC50” value amounted to 0.09 nM and the “ADCC reporter … target cell HCC1806, EC50” value worked out at 0.18 nM. For the same molecule, in experiment [3], the “ADCC, PBMC killing (LDH), H322, EC50” value is 0.02 nM; the “ADCC … H322, Maximum killing (%)” value came out at 53%; the “ADCC, PBMC killing (LDH), HCC1806, EC50” value worked out at 0.04 nM; the “ADCC … HCC1806, Maximum killing (%)” value stood at 38.5%. For the same molecule, in experiment [4], the EC50 amounted to 0.83 nM.

B3: hz-Ab35-1.2 (antibody, human IgG1, kappa, V domains shown)
VH: QVQLVQSGAEVKKPGASVKVSCKASGYTFTSSDINWVRQRPGQGLEWMGWIYPRDGSKKYNEKFKGRVTMTVDTSTSTVYMELSSLRSEDTAVYYCARRFATVVSNYGLDPWGQGTLVTVSS
VL: EIVLTQSPATLSLSPGERATLSCSASSSVNYIYWYQRKPGQAPRLLIYDTSNLASGIPARFSGSGSGTDFTLTISSLEPEDFAVYYCQQWNSYPLTFGQGTKVEIKR
With B3, the response in experiment [1] was half-maximal at 0.62 nM (EC50). This molecule also gave an EC50 with human Trop-2-His of 0.035 nM. For the same molecule, in experiment [2], the “ADCC reporter … target cell H322, EC50” value was 0.1 nM and the “ADCC reporter … target cell HCC1806, EC50” value came out at 0.28 nM. Besides, in experiment [3], the “ADCC, PBMC killing (LDH), H322, EC50” value was found to be 0.02 nM; the “ADCC … H322, Maximum killing (%)” value came to 51.5%; the “ADCC, PBMC killing (LDH), HCC1806, EC50” value was 0.06 nM; the “ADCC … HCC1806, Maximum killing (%)” value came to 34.9%. In experiment [4], this molecule came in with an EC50 of 0.57 nM.
